Measured values reported in ChEMBL document CHEMBL1144176, “Synthesis and biological evaluation of indolyl bisphosphonates as anti-bone resorptive and anti-leishmanial agents” (Bioorg Med Chem, 2008).

Test system: Leishmania donovani
Conditions: MHOM/IN/80/Dd8, J774.A1, 3000 ug/mL

Sodium Stibogluconate
inhibition: 86.8%
